## Binding of CDR-mutated scFvs to a peptide of the spike HR2 region

Reference: Engelhart et al. 2022, doi:10.1038/s41597-022-01779-4. File: FLAb, binding data.

Antigen: PDVDLGDISGINAS, a 14-residue peptide of the SARS-CoV-2 spike HR2 region.

The variants keep the light chain, the linker and the frameworks of Ab-14 (scFv order VH, a 15-residue (Gly4Ser)3 linker, VL).
VH: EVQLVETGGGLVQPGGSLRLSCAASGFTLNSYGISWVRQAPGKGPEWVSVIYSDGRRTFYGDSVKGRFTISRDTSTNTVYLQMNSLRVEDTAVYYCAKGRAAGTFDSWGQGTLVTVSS
VL: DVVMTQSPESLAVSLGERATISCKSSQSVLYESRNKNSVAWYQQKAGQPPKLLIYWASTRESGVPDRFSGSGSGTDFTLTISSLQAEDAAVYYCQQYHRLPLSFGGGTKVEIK

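The starting antibody came from a phage panning campaign against this peptide. The library (AAYL49) carries one to three amino acid substitutions per variant, with no insertions or deletions. AlphaSeq pools MATa yeast showing the antibodies with MATalpha yeast showing the peptide. After mating in shaken culture at 30 °C for 16 h, diploids were selected and their barcode pairs sequenced. Each replicate has its own calibration line, from reference interactions of the BCL2 family. Each pool was mated in three replicate cultures.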

The parent's heavy chain CDRs are GFTLNSYGIS, VIYSDGRRTFYGDSVK, GRAAGTFDS; each variant's own CDRs replace them letter for letter. This list gathers variants with a substitution at S63 (VH, numbered from residue 1). The Kd shown is the geometric mean over detected replicates; a lower Kd is a better binder. Where no diploid with the target was found in any replicate, the entry reads "no signal": below detection, most likely a poor binder, though not proof of it. For reference, the parent read 4.4 nM as the reference entry and 13 µM (one replicate of three) as a member of this library. Empty control strains, which show no peptide, gave a signal in 15% of pairings with library AAYL49; the median was 11 µM and 95% of these signals were weaker than 680 nM. No background was subtracted. For each scFv, signals with the empty controls are counted beside the result.

With GFTLNSYGIS, VKYSDGRRTFYGYMVK, GRAAGTFDS the result was no signal (0 of 3 replicates; controls 0 of 9).
With GFTANSYGIS, VIWSDGRRTFYGDWVK, GRAAGTFDS the result was 160 µM (2 of 3 replicates; controls 2 of 9).
With GYTLNSYGIS, VWYSDGRRTFYGDHVK, GRAAGTFDS the result was 5.4 µM (2 of 3 replicates; controls 3 of 9).
With GFTLNSYGIS, AIYSDGRRTFPGDMVK, GRAAGTFDS the result was no signal (0 of 3 replicates; controls 1 of 9).
With GFTLNSYGIS, VIYSDGRRTFYGDAVK, GRRAGTFDS the result was 290 nM (3 of 3 replicates; controls 2 of 9).
With GFTLNSYGIS, VTYSDGRRTFYGDHVK, GRAAGYFDS the result was 1.5 µM (1 of 3 replicates; controls 2 of 9).
With GVTLNSYGIS, VIYSDGRRQFYGDWVK, GRAAGTFDS the result was no signal (0 of 3 replicates; controls 0 of 9).
With GFTLNRYGIS, VIYSDGRRTFYGDTVK, GRAAGTFLS the result was 8.5 µM (2 of 3 replicates; controls 4 of 9).
With GFTLNSYGIS, VIYSDGRFTFYGDNVK, GRAAGTFDC the result was 3.9 µM (1 of 3 replicates; controls 0 of 9).
With RFTDNSYGIS, VIYSDGRRTFYGDVVK, GRAAGTFDS the result was no signal (0 of 3 replicates; controls 1 of 9).
With GFNLNSYGIS, VIYSDGRRTFYGDHVK, KRAAGTFDS the result was no signal (0 of 3 replicates; controls 0 of 9).
With GFTLNSYPIS, VIKSDGRRTFYGDCVK, GRAAGTFDS the result was 6.7 µM (2 of 3 replicates; controls 4 of 9).
With GFTKNSYGIS, CIYSDGRRTFYGDKVK, GRAAGTFDS the result was 1.6 µM (1 of 3 replicates; controls 0 of 9).
With GFTLNSYGIS, VIYSDGRRTFIGDEVK, GRARGTFDS the result was no signal (0 of 3 replicates; controls 0 of 9).
With CFTLNSYGIS, VIHSDGRRTFYGDQVK, GRAAGTFDS the result was no signal (0 of 3 replicates; controls 3 of 9).
With GFTLNSYGIQ, VIYSDGRRTFYGDYVK, GRAIGTFDS the result was 4.2 µM (1 of 3 replicates; controls 0 of 9).
With RFTLNSYGIS, VIYSDGRRTFYYDYVK, GRAAGTFDS the result was 6.2 µM (1 of 3 replicates; controls 2 of 9).
With GFTVNSYGIS, VIYSDGRRTFYGDDVK, GRAAGTFDS the result was 870 nM (3 of 3 replicates; controls 4 of 9).
With AFTLNSYGIS, VIYSDGRRTFYGDMVK, GRLAGTFDS the result was 55 nM (3 of 3 replicates; controls 1 of 9).
With GFTLNSYGIS, VIYSDGRRTFYGDHVK, GRAAWTFDS the result was 38 nM (3 of 3 replicates; controls 0 of 9).
With GFTLNSYGIS, VIYSDGRRTFFGDIVK, GRAAGTKDS the result was no signal (0 of 3 replicates; controls 0 of 9).
With GNTLNSYGIS, VIYSDGRRTFAGDPVK, GRAAGTFDS the result was 3.0 µM (2 of 3 replicates; controls 0 of 9).
With GFTLNSYNIS, VIYSDGRRTFYGDTVK, GRSAGTFDS the result was 93 µM (1 of 3 replicates; controls 1 of 9).
With GFTLNSYGIR, VIYSDGRRTFYGDIVK, GRAAGTFDW the result was no signal (0 of 3 replicates; controls 1 of 9).
With GFTLNSYGIT, VIYSDGRRTFYGDKVK, GRAAGTFDS the result was 350 µM (1 of 3 replicates; controls 1 of 9).
With GFTVNTYGIS, VIYSDGRRTFYGDKVK, GRAAGTFDS the result was 27 nM (3 of 3 replicates; controls 2 of 9).
With GFTLNSYGIS, VIYSDGRRLFYNDIVK, GRAAGTFDS the result was 510 nM (3 of 3 replicates; controls 2 of 9).
With GFTLNEYGIS, VIYSDGRRTFYGDMTK, GRAAGTFDS the result was no signal (0 of 3 replicates; controls 0 of 9).
With GFTLNSYGIS, VIYSDGRNTFYGDWVK, GRQAGTFDS the result was 24 µM (1 of 3 replicates; controls 2 of 9).
With GFTLNSYGIS, VIYSDGERTFYGDAVK, GRAAGTFDS the result was 5.4 nM (3 of 3 replicates; controls 3 of 9).
With GFTLNSCGIS, VIYSDGRRTFYGDPVK, GRAAGQFDS the result was no signal (0 of 3 replicates; controls 1 of 9).
With GFTLNSYGIS, VIYSDIRRYFYGDTVK, GRAAGTFDS the result was no signal (0 of 3 replicates; controls 1 of 9).
With GFTLNSYGIS, VIYSDQRRTVYGDQVK, GRAAGTFDS the result was 34 µM (1 of 3 replicates; controls 0 of 9).
With GFPLNSYGIC, VIYSDGRRTFYGDFVK, GRAAGTFDS the result was no signal (0 of 3 replicates; controls 1 of 9).
With GFTLNSYGIS, VIYSDIRRTFYGDGVK, GRAATTFDS the result was no signal (0 of 3 replicates; controls 0 of 9).
With GFTLNTYGIS, VIYSDGRRTFYGDCEK, GRAAGTFDS the result was 11 µM (1 of 3 replicates; controls 0 of 9).
With GFTLNSYGIS, VIYQDGRRTFYGDGVK, GRAAGTFSS the result was 17 µM (1 of 3 replicates; controls 1 of 9).
With GFTLNSYGIS, VIYSDGRRTFYGDHVK, GRWAGTFQS the result was 2.0 mM (1 of 3 replicates; controls 4 of 9).

Repeated from above, the 4 best binders with a signal in all replicates:

Variant GFTLNSYGIS, VIYSDGERTFYGDAVK, GRAAGTFDS gave 5.4 nM (3 of 3 replicates; controls 3 of 9).
Variant GFTVNTYGIS, VIYSDGRRTFYGDKVK, GRAAGTFDS gave 27 nM (3 of 3 replicates; controls 2 of 9).
Variant GFTLNSYGIS, VIYSDGRRTFYGDHVK, GRAAWTFDS gave 38 nM (3 of 3 replicates; controls 0 of 9).
Variant AFTLNSYGIS, VIYSDGRRTFYGDMVK, GRLAGTFDS gave 55 nM (3 of 3 replicates; controls 1 of 9).